Data reported in patent publication US9125915B2, “Antitumor agent” (Mitsubishi Tanabe Pharma Corporation, priority 2007, dated 2015).

Sequences of proteins named here, by UniProt entry; tags and fusion partners are left off.
UniProt P25440, whole entry: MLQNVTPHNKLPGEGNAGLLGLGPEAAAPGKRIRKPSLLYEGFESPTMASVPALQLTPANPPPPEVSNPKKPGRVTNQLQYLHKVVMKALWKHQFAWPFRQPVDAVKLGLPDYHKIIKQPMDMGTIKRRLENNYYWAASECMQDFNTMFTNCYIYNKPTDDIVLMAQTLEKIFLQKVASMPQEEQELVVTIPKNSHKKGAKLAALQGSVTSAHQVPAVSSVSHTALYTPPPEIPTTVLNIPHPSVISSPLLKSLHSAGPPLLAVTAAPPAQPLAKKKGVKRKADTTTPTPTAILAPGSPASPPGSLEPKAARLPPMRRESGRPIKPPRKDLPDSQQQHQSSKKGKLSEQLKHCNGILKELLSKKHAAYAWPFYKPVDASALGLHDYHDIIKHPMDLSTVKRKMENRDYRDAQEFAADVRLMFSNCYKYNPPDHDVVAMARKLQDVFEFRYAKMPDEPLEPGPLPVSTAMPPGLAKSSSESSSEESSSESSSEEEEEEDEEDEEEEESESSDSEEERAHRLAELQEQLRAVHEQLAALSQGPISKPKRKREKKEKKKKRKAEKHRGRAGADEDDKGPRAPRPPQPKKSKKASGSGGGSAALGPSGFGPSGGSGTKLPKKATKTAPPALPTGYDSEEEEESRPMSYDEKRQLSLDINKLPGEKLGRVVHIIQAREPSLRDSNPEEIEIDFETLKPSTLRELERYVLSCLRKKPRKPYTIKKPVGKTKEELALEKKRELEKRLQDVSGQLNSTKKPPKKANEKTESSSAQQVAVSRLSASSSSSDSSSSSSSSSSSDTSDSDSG

Target: BRD2 (Homo sapiens (Human), UniProt P25440)
Experiment: Binding inhibitory test of acetylated histone H4 and BRD2 (TR-FRET)
Conditions: CHO cell lysate with Flag-BRD2, biotin-labeled acetylated histone H4 peptide
Protocol: An expression vector containing cDNA of BRD2, 3 and 4 added with Flag-tag was transfected to CHO cell, and a cell lysate was prepared 24 hr later. Binding of acetylated histone H4 and BRD was confirmed by a Time Resolved Fluorescence Resonance Energy Transfer (TR-FRET) method. To a 384-well white plate (manufactured by Coaster) were added 50 nmol/L biotin-labeled acetylated histone H4 peptide (manufactured by Upstate) and a serially diluted test compound.

## Cc1sc2c(c1C)C(c1ccc(Cl)cc1)=N[C@@H](CC(=O)Nc1ccc(O)cc1)c1nnc(C)n1-2 [Compound 1, (S)-2-[4-(4-chlorophenyl)-2,3,9-trimethyl-6H-thieno[3,2-f][1,2,4]triazolo[4,3-a][1,4]diazepin-6-yl]-N-(4-hydroxyphenyl)acetamide]
  IC50: 0.0555 µM
